In patent US20200129545A1, “METHODS OF TREATMENT WITH MIXED METAL COMPOUND” (published 2020):

Assays:
[1] = tested on: adenine-induced CKD rat model; assay: Adenine-induced CKD rat model: vascular calcification in arterial tissues; conditions: for degree of vascular calcification in arterial tissues: p<0.001; for animals that had VC (per animal basis): p<0.05
[2] = tested on: adenine-induced CKD rat model; assay: Adenine-induced CKD rat model: tissue magnesium and magnesium:phosphate ratio; conditions: for magnesium to phosphate accumulation, aorta: p<0.05
[3] = tested on: adenine-induced CKD rat model; assay: Adenine-induced CKD rat model: serum creatinine, phosphate, calcium, magnesium, PTH, FGF23, vitamin D metabolites; conditions: for serum Mg: p<0.0001, 2-way ANOVA; for serum PO4 (lower levels): p<0.001; for FGF23 levels: fermagate vs control, both studies; for serum calcium: fermagate-treated vs control, both experiments
[4] = 0.75% study, vs untreated control, p<0.01
[5] = 1%+0.5% diet study, vs untreated control, p<0.001

iron magnesium hydroxy carbonate
degree of vascular calcification in arterial tissues ([1]; 0.5-1% P diet, CON 65%): 13% | animals that had VC (per animal basis) ([1]; 0.5-1% P diet, CON 70%): 13% | degree of vascular calcification in arterial tissues ([1]; 0.75% P diet, CON 79%): 35% | animals that had VC (per animal basis) ([1]; 0.75% P diet, CON 100%): 33% | magnesium to phosphate accumulation, coronary CMR arteries [2, 4]: significantly more | magnesium to phosphate accumulation, distal vascular arteries [2, 4]: significantly more | magnesium to phosphate accumulation, aorta ([2]; 0.75% study, vs untreated control): significantly more | magnesium to phosphate accumulation, coronary CMR arteries [2, 5]: significantly more | magnesium to phosphate accumulation, distal vascular [2, 5]: significantly more | magnesium to phosphate accumulation, carotid arteries ([2]; 1%+0.5% diet study, vs untreated control, p<0.01): significantly more | magnesium to phosphate accumulation, aorta ([2]; 1%+0.5% diet study, vs untreated control): significantly more | Mg levels in the vasculature tissue ([2]; both studies): did not significantly alter | magnesium to phosphate ratios in non-vascular tissues (bone, muscle, fat, liver, heart, lung, spleen) ([2]; both studies, fermagate vs untreated CKD animals): Only vascular tissues demonstrated a difference | bone magnesium content ([2]; untreated CKD animals vs those receiving fermagate): did not show significant alternation | serum Mg ([3]; 0.5-1% P diet (high 1% P day, low 0.5% P overnight)): 163 % control | serum PO4 (lower levels) ([3]; 0.5-1% P diet): 64 % control | serum Mg ([3]; 0.75% P diet, fermagate vs untreated control): 203 % control | serum PO4 (lower levels) ([3]; 0.75% P diet): 67 % control | hyperphosphatemia ([3]; after start of fermagate treatment and higher phosphate diet): hyperphosphatemia was present only in control | FGF23 levels [3]: not significantly altered | FGF23 levels ([3]; listed as Fermagate): did not significantly alter | serum calcium [3]: not significantly different | serum calcium ([3]; listed as Fermagate): did not significantly alter | serum vitamin D profiles / metabolome ([3]; sacrifice serum, only 25-OH-D3 lactone differed (p=0.02), listed as Fermagate): did not significantly alter
